The entries are a selection whose mix differs from that of the whole data set. Records with an inconclusive call do not appear. A call without a number means that no potency is given here. Active and inactive are the calls of the source. Calls follow the shape of the dose curve; as a rule, active = well fitted cell-killing curve with a large enough effect in the repeat runs; inconclusive = weak or mixed curves, or effect the other way; inactive = flat fitted curve, though single readings scatter.
Assay: qHTS assay to identify small molecule that activate the aryl hydrocarbon receptor (AhR) signaling pathway - cell viability counter screen (AID 743086); also: nearly all actives have a fitted effect of over 45% in size
Settings: HepG2-AhR-luc viability, CellTiter-Fluor, 24 h; series mostly up to 70.3 µM
Text: U.S. Tox21 Program National Center for Advancing Translational Sciences [NCATS] NIH Chemical Genomics Center [NCGC] U.S. Environmental Protection Agency [EPA] National Institutes of Environmental Health Sciences [NIEHS] National Toxicology Program [NTP] U.S. Food and Drug Administration [FDA] Tox21 Assay overview: The Aryl hydrocarbon Receptor (AhR), a member of the family of basic helix-loop-helix transcription factors, is crucial to adaptive responses to environmental changes. AhR mediates cellular responses to environmental pollutants such as aromatic hydrocarbons through induction of phase I and II enzymes but also interacts with other nuclear receptor signaling pathways A cell based HepG2-AhR-luc assay (HG2L7.5c1 cell line, developed by Dr. Michael S. Denison, University of California at Davis) was used to assess the activation of AhR. HepG2 (human hepatocellular carcinoma) cells were stably transfected with an Ah receptor-responsive firefly luciferase reporter gene plasmid containing 20 dioxin responsive elements and luciferase reporter gene. Increased luciferase activity can be used to identify the compounds that induce AhR activation. The cytotoxicity of the compounds screened against the HepG2-AhR-luc cell line was tested in parallel by measuring the cell viability using CellTiter-Fluor assay in the same wells.
Tox21 Assay Protocol Summary: 4000 cells in 5 uL/well were dispensed into white wall/solid bottom 1536-well plates using a Multidrop Combi (Thermo Fisher Scientific Inc., Waltham, MA) dispenser. After the assay plates were incubated at 37C for 5 h, 23 nL of compound or DMSO vehicle was transferred to the assay plates by a pintool station (Kalypsys, San Diego, CA). The plates were incubated at 37C for 24 hr. For cell viability measurement, 1 ul/well of CellTiter-Fluor reagent (Promega, Madison, WI) was added into the assay plates using a Flying Reagent Dispenser (FRD) (Aurora Discovery, CA),and then the assay plates were incubated at 37C for 30 min. The fluorescence intensity in the plates was measured using a ViewLux plate reader (PerkinElmer, Shelton, CT), followed by the addition of 4 uL of ONE-Glo Luciferase Assay reagent (Promega) using an FRD (Aurora Discovery). After the assay plates were incubated at room temperature for 30 min, luminescence intensity was measured using a ViewLux plate reader (Perkin Elmer).
Potency is read from the fitted curve at half-maximal effect.

| SMILES | Potency |
| --- | --- |
| CN(C(=O)Cc1cccc2occc12)[C@H]1CC[C@@]2(CCCO2)C[C@@H]1N1CCCC1 | inactive |
| CN(N=O)C(=N)N[N+](=O)[O-] | inactive |
| COP(=S)(Cl)OC | inactive |
| O=[As]c1ccccc1 (centres undefined) | active: 2.17 µM |
| ClP(Cl)c1ccccc1 | inactive |
| O=P(Cl)(Oc1ccccc1)Oc1ccccc1 | inactive |
| CC(C)CCCCCCCOP(OCCCCCCCC(C)C)Oc1ccccc1 | inactive |
| CCNC(C)Cc1ccc2c(c1)OCO2 (centres undefined) | inactive |
| CCOP(=S)(CC)Sc1ccccc1 (centres undefined) | inactive |
| O=[N+]([O-])c1ccc(S(=O)(=O)O)c([N+](=O)[O-])c1 | inactive |
| CCOC(=O)Cl | inactive |
| O=P(Cl)(Cl)c1ccccc1 | inactive |
| O=[p+]1oc2ccccc2c2ccccc21 (centres undefined) | inactive |
| O=C(OC1CN2CCC1CC2)c1ccccc1 (centres undefined) | inactive |
| CCCCC(CC)CO[P+](=O)OCC(CC)CCCC (centres undefined) | inactive |
| COC(=O)Cl | inactive |
| NC(=O)Nc1ccc([As](=O)(O)O)cc1 | inactive |
| CN(C(=O)Cc1ccccc1)[C@H]1CC[C@@]2(CCCO2)C[C@@H]1N1CCCC1 | inactive |
| CCCCO[P+](=O)OCCCC | inactive |

Source: PubChem BioAssay (Tox21)
